Assay [1] concerns M. vaccae IMET 10 10670. The assay is classed as cell-based. The conditions noted are these: Mycolicibacterium vaccae, IMET1010670, read-out: MIC M.vaccae.
Assay [2] deals with Mycobacterium smegmatis SG 987. The class given is cell-based. The conditions noted are these: Mycolicibacterium smegmatis, SG987, read-out: MIC M. smegmatis.

≈ marks a conversion by molar mass, not a printed value.

By MIC is commonly meant the lowest concentration that inhibits growth of the organism. Regarding `CCOC1(OCC)CCN(c2nc(=O)c3cc([N+](=O)[O-])cc([N+](=O)[O-])c3s2)CC1` [Compound 6, 2-(4,4-diethoxypiperidin-l-yl)-6,8-dinitro-1,3-benzothiazin-4-one], the MIC in assay [1] was 0.04 µg/mL (≈ 0.0942 µM); in assay [2], > 10 µg/mL.

(Values after EP2181998B1, “New benzothiazinone derivative and its use as antibacterial agent” (priority 2006, dated 2007).)
